Laboratory results reported in patent publication US20240139351A1, “TARGETING SYSTEM WITH IMPROVED UPTAKE” (CORETAG IP B.V., priority 2021, published 2024).

Tested on: NCI-H69 tumor
Experiment: Biodistribution of 111In-radiolabeled compounds in mice bearing NCI-H69 tumors
From the text: CORETAG has evaluated the radiolabeling, in vitro binding, pharmacology in tumor animal model, and PET or SPECT imaging with an overall expertise in targeted radiotherapy and companion imaging diagnostic. The aim of this part is to evaluate the biodistribution of the 4 compounds below and compare it to the biodistribution of DOT-AGA-PEG4-CW800 (prior art).
The injected activity was about 9.0 MBq.
The NCI-H69 cell line used is a human small cell lung cancer carcinoma that was
Tumor cells were grown at 37° C. in a humidified atmosphere (5% CO2, 95% air). The culture medium will be RPMI1640 medium containing 10% fetal calf serum. NCI-H69 tumor cells are growing as a cell suspension. For experimental use, tumor cells were harvested by centrifugation. Cells were counted and viability assessed using a 0.25% try-pan blue exclusion assay.
Thirty-one (31) healthy female SWISS Nude (Crl:NU(Ico)-Foxn1nu) mice, 6-8 weeks old at reception, were obtained from Charles River. The injection volume was 100 μl.
Tumors were induced by subcutaneous injection of 2×10^7 NCI-H69 cells in 200 μL of RPMI 1640 into the right flank of 31 female animals in the axis of the heart. NCI-H69 tumor cell implantation was performed 24 to 72 hours after a whole-body irradiation with a gamma-source (2 Gy, 60 Co, BioMep, France). The day of tumor induction is considered as D0.
All imaging experiments were performed on a 4.7T horizontal magnet (PharmaS-can, Bruker Biospin GmbH, Germany) equipped with an actively shielded gradient system. All the MR images were acquired under ParaVision (PV5.1, Bruker Biospin).

DOTAGA-LYS-(PEG4-CW800)2 [component 5]
higher: Radioactivity in blood (comparison between components) (111In label, FIG. 4a,b) | Remaining radioactivity in whole body after 3 h (3 h, comparison between components) | Remaining radioactivity in whole body after 24 h (24 h, comparison between components)
